Results: US12171806B2, “Therapeutic regimens and methods for lowering blood glucose and/or body weight using GLP-1R and GCGR balanced agonists” (priority 2021, dated 2024)

Assay: Phase 1 MAD study of ALT-801: adverse events (TEAEs), safety overview
Conditions: M3 2.4 mg (N = 11)

CC[C@H](C)[C@H](NC(=O)[C@H](Cc1ccccc1)NC(=O)[C@H](CCC(=O)O)NC(=O)[C@@H]1CCCCNC(=O)CC[C@H](NC(=O)[C@H](CC(=O)O)NC(=O)[C@H](CC(C)C)NC(=O)[C@H](Cc2ccc(O)cc2)NC(=O)[C@H](CCCCN)NC(=O)[C@H](CO)NC(=O)[C@H](Cc2ccc(O)cc2)NC(=O)[C@H](CC(=O)O)NC(=O)[C@H](CO)NC(=O)[C@@H](NC(=O)[C@H](Cc2ccccc2)NC(=O)[C@@H](NC(=O)CNC(=O)[C@H](CCC(N)=O)NC(=O)C(C)(C)NC(=O)[C@@H](N)Cc2c[nH]cn2)[C@@H](C)O)[C@@H](C)O)C(=O)N[C@@H](CCCCNC(=O)[C@H]2O[C@@H](OCCCCCCCCCCCCCCCCCC(=O)O)[C@H](O)[C@@H](O)[C@@H]2O)C(=O)N[C@@H](C)C(=O)N[C@@H](C)C(=O)N1)C(=O)N[C@@H](CCC(N)=O)C(=O)N[C@@H](Cc1c[nH]c2ccccc12)C(=O)N[C@@H](CC(C)C)C(=O)N[C@@H](CC(C)C)C(=O)N[C@@H](CCC(N)=O)C(=O)N[C@H](C(N)=O)[C@@H](C)O [ALT-801, pemvidutide]
TEAE Diarrhoea; PLT; n: 0
TEAE Diarrhoea; Severe; %: (0.0%)
TEAE Diarrhoea; Severe; n: 0
TEAE Dyspepsia; Mild; %: (9.1%)
TEAE Dyspepsia; Mild; n: 1
TEAE Dyspepsia; Moderate; %: (0.0%)
TEAE Dyspepsia; Moderate; n: 0
TEAE Dyspepsia; PLT; %: (0.0%)
TEAE Dyspepsia; PLT; n: 0
TEAE Dyspepsia; Severe; %: (0.0%)
TEAE Dyspepsia; Severe; n: 0
TEAE Early satiety; Mild; %: (9.1%)
TEAE Early satiety; Mild; n: 1
TEAE Early satiety; Moderate; %: (0.0%)
TEAE Early satiety; Moderate; n: 0
TEAE Early satiety; PLT; %: (0.0%)
TEAE Early satiety; PLT; n: 0
TEAE Early satiety; Severe; %: (0.0%)
TEAE Early satiety; Severe; n: 0
TEAE Eye disorders; Mild; %: (0.0%)
TEAE Eye disorders; Mild; n: 0
TEAE Eye disorders; Moderate; %: (0.0%)
TEAE Eye disorders; Moderate; n: 0
TEAE Eye disorders; PLT; %: (0.0%)
TEAE Eye disorders; PLT; n: 0
TEAE Eye disorders; Severe; %: (0.0%)
TEAE Eye disorders; Severe; n: 0
TEAE Eye pain; Mild; %: (0.0%)
TEAE Eye pain; Mild; n: 0
TEAE Eye pain; Moderate; %: (0.0%)
TEAE Eye pain; Moderate; n: 0
TEAE Eye pain; PLT; %: (0.0%)
TEAE Eye pain; PLT; n: 0
TEAE Eye pain; Severe; %: (0.0%)
TEAE Eye pain; Severe; n: 0
TEAE Fatigue; Mild; %: (0.0%)
TEAE Fatigue; Mild; n: 0
TEAE Fatigue; Moderate; %: (0.0%)
TEAE Fatigue; Moderate; n: 0
TEAE Fatigue; PLT; %: (0.0%)
TEAE Fatigue; PLT; n: 0
TEAE Fatigue; Severe; %: (0.0%)
TEAE Fatigue; Severe; n: 0
TEAE Food poisoning; Mild; %: (0.0%)
TEAE Food poisoning; Mild; n: 0
TEAE Food poisoning; Moderate; %: (0.0%)
TEAE Food poisoning; Moderate; n: 0
TEAE Food poisoning; PLT; %: (0.0%)
TEAE Food poisoning; PLT; n: 0
TEAE Food poisoning; Severe; %: (0.0%)
TEAE Food poisoning; Severe; n: 0
TEAE Fungal infection; Mild; %: (0.0%)
TEAE Fungal infection; Mild; n: 0
TEAE Fungal infection; Moderate; %: (0.0%)
TEAE Fungal infection; Moderate; n: 0
TEAE Fungal infection; PLT; %: (0.0%)
TEAE Fungal infection; PLT; n: 0
TEAE Fungal infection; Severe; %: (0.0%)
TEAE Fungal infection; Severe; n: 0
TEAE Fungal skin; Mild; %: (9.1%)
TEAE Fungal skin; Mild; n: 1
TEAE Gastrointestinal disorders; Mild; %: (45.5%)
TEAE Gastrointestinal disorders; Mild; n: 5
TEAE Gastrointestinal disorders; Moderate; %: (45.5%)
TEAE Gastrointestinal disorders; Moderate; n: 5
TEAE Gastrointestinal disorders; PLT; %: (0.0%)
TEAE Gastrointestinal disorders; PLT; n: 0
TEAE Gastrointestinal disorders; Severe; %: (0.0%)
TEAE Gastrointestinal disorders; Severe; n: 0
TEAE Haematemesis; Mild; %: (9.1%)
TEAE Haematemesis; Mild; n: 1
TEAE Haematemesis; Moderate; %: (0.0%)
TEAE Haematemesis; Moderate; n: 0
TEAE Haematemesis; PLT; %: (0.0%)
TEAE Haematemesis; PLT; n: 0
TEAE Haematemesis; Severe; %: (0.0%)
TEAE Haematemesis; Severe; n: 0
TEAE Infections and infestations; Mild; %: (27.3%)
TEAE Infections and infestations; Mild; n: 3
TEAE Infections and infestations; Moderate; %: (0.0%)
TEAE Infections and infestations; Moderate; n: 0
TEAE Infections and infestations; PLT; %: (0.0%)
TEAE Infections and infestations; PLT; n: 0
TEAE Infections and infestations; Severe; %: (0.0%)
TEAE Infections and infestations; Severe; n: 0
TEAE Injection site bruising; Mild; %: (9.1%)
TEAE Injection site bruising; Mild; n: 1
TEAE Injection site bruising; Moderate; %: (0.0%)
TEAE Injection site bruising; Moderate; n: 0
TEAE Injection site bruising; PLT; %: (0.0%)
